# Experimental data from publication PMC11052071, “Novel JAK Inhibitors to Reduce Graft-Versus-Host Disease after Allogeneic Hematopoietic Cell Transplantation in a Preclinical Mouse Model” (Molecules, 2024).
# Chains of the proteins cited; added tags and fusions are not shown. Lines headed by an entry give the natural chain unless they say otherwise; changes in a name come on top.
# UniProt O60674: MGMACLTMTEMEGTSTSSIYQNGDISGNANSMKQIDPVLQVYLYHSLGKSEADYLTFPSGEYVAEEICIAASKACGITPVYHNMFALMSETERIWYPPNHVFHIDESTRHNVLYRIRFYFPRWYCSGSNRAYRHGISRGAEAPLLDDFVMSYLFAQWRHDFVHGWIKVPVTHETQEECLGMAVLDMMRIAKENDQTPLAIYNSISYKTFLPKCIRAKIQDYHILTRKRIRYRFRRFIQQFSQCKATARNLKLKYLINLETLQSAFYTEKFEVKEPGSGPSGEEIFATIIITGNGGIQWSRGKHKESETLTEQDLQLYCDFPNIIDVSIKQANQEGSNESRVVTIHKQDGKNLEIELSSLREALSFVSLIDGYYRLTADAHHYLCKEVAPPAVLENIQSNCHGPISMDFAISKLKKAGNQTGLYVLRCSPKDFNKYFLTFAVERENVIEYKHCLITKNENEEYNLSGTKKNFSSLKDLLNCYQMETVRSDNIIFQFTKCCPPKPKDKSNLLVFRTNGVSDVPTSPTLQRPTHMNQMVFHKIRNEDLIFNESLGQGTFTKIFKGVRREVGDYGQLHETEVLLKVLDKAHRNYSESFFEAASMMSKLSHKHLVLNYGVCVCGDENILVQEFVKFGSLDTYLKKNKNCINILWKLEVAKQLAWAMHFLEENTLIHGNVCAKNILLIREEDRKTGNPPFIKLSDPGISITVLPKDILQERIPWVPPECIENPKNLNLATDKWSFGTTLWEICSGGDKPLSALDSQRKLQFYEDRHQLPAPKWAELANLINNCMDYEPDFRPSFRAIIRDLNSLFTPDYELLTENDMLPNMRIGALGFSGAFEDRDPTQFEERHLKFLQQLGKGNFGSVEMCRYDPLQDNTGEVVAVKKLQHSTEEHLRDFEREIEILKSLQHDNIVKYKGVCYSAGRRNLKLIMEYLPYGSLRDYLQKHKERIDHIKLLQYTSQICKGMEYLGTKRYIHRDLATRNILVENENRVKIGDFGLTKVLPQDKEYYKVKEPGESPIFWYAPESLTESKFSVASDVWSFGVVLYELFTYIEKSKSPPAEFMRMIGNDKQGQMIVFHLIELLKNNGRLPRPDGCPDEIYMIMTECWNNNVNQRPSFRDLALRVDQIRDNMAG
# How the values were obtained:
# [1] = Mouse PK after subcutaneous injection; format: in vivo; details: 2 mg/kg s.c., CD-1 mice, time points up to 6 h; WU derivatives compared to BARI
# Protocol: Subsequently, we assessed the in vitro metabolic stability and clearance values of WU derivatives in an HLM assay.
# (A,B) Mouse PK following subcutaneous administration of WU derivatives (2 mg/kg) to CD-1 mice. […] All error bars are represented as mean ± standard deviation.
# Mouse PK and in vitro human liver microsome (HLM) assay studies were conducted by Charles River Laboratories, Inc. (Wilmington, MA, USA). Briefly, male CD-1 mice were used in mouse PK studies. […] At 24 h, no drug levels were detected in plasma for any of the compounds tested. In addition, WU derivatives were evaluated in an in vitro HLM assay to determine the intrinsic human liver microsomal clearance values of compounds in incubations with human liver microsomes.
# JAK2 = JAK2 (Homo sapiens, UniProt O60674); assay: Z'-LYTE enzyme activity assay (SelectScreen Kinase Profiling), JAK2
smiles,measurement,setting,value
"CCS(=O)(=O)N1CC(CC#N)(n2cc(-c3ncnc4[nH]ccc34)cn2)C1 [BARI, baricitinib, reference compound]",plasma drug concentration (mouse PK),[1],superior PK compared to RUX
same,IC50,"JAK2; IC50 JAK2, ATP at 1 mM",12.1 nM
same,IC50,"JAK2; IC50 JAK2, ATP at app. Km",0.22 nM
